Patent US5280015A, “2-substituted adenosines and 2-substituted adenosine 5'-carboxamides” (priority 1990, dated 1994)

Amino acid sequences for entries named in this document (tags omitted). Residues count along the entry.
UniProt P25099, whole entry: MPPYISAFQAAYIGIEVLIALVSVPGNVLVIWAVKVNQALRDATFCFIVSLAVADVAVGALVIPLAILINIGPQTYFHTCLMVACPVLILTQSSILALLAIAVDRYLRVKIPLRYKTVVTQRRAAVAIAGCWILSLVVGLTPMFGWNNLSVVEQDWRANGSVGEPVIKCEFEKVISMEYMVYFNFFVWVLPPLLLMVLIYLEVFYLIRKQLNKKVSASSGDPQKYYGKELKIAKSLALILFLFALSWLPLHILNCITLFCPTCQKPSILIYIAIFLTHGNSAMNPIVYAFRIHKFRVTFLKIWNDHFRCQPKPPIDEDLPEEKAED
UniProt E1BKU0, 1-401: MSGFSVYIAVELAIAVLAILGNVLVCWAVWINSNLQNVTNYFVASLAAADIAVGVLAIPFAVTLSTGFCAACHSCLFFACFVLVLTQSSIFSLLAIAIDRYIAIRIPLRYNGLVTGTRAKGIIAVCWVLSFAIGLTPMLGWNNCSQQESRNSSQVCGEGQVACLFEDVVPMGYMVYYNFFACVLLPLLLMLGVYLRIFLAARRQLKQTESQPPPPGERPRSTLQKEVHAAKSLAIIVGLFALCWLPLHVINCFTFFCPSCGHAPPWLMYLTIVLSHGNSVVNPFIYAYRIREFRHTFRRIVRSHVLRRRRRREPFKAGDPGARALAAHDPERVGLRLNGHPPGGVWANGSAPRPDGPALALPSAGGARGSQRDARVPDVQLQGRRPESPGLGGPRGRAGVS
UniProt P30543, whole entry: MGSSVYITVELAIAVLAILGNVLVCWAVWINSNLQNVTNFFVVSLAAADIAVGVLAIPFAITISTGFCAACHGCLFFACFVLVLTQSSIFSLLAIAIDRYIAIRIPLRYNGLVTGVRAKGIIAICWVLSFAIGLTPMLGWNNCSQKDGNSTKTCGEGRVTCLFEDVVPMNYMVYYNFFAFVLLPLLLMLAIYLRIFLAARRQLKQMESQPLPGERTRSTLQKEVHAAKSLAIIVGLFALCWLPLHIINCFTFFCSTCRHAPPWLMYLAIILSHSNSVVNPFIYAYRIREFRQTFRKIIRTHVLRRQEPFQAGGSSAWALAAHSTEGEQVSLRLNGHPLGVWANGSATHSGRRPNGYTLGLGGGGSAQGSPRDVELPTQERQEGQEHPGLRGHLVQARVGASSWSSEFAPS

Assays:
A1-adenosine receptors = target: T1, A1-adenosine receptors (Rattus norvegicus, UniProt P25099); experiment: Competitive binding assay at A1-adenosine receptors, rat cerebral cortex membranes ([3H]PIA or [3H]CHA); details: [3H]N6-cyclohexyladenosine (footnote c), read-out: Ki, inhibition of binding at A1-receptors using [3H]N6-cyclohexyladenosine
T1 construct: rat cerebral cortex membranes; from tissue; host or cells: rat cerebral cortex membranes

A2-adenosine receptors [1] = experiment: Competitive binding assay in bovine brain using 125I-PAPA-APEC (striatal membranes); details: ratio of Ki at A1-receptors (rat) versus Ki in the 125I-PAPA-APEC assay (bovine)
A2 adenosine receptors = A2 adenosine receptors (Bos taurus, UniProt E1BKU0); experiment: as above; parameters: Bovine striatal membranes; from tissue; host or cells: bovine (calf) striatal membranes; details: Ki, inhibition of binding of 125I-PAPA-APEC at A2-receptors, bovine striatum; 11, 12 and 14: apparent Ki
A2-adenosine receptors [2] = target: A2-adenosine receptors (Rattus norvegicus, UniProt P30543); experiment: Inhibition of binding of [3H]CGS21680 to A2-adenosine receptors in rat striatal membranes; parameters: rat striatal membranes; from tissue; host or cells: rat striatal membranes

| SMILES | Ki (A2 adenosine receptors) [nM] | further results |
| --- | --- | --- |
| CCNC(=O)[C@H]1O[C@@H](n2cnc3c(N)nc(NCCc4ccc(CCC(=O)O)cc4)nc32)[C@H](O)[C@@H]1O [Compound 1, reference compound] |  | Ki (A1-adenosine receptors): 2600 ± 300 nM |
| CCNC(=O)[C@H]1O[C@@H](n2cnc3c(N)nc(NCCc4ccc(CCC(=O)NCCNC(=S)NC5CC(C)(C)N([O])C(C)(C)C5)cc4)nc32)[C@H](O)[C@@H]1O [Compound 15] |  | Ki (A1)/K1 (A2) (A2-adenosine receptors [1]): 12 |
| CCNC(=O)[C@H]1O[C@@H](n2cnc3c(N)ncnc32)[C@H](O)[C@@H]1O [NECA, 5'-N-ethylcarboxamidoadenosine, reference compound] | 55 ± 26 |  |
| C[C@H](Cc1ccccc1)Nc1ncnc2c1ncn2[C@@H]1O[C@H](CO)[C@@H](O)[C@H]1O [R-PIA, N^6 -phenylisopropyladenosine, reference compound] | 870 ± 270 | Ki (A2-adenosine receptors [2]): 410 ± 32 nM |
| C[C@@H](Cc1ccccc1)Nc1ncnc2c1ncn2[C@@H]1O[C@H](CO)[C@@H](O)[C@H]1O [S-PIA, N^6 -phenylisopropyladenosine, reference compound] | 10300 |  |
| Cn1c(=O)c2[nH]cnc2n(C)c1=O [theophylline] | 20300 |  |
